Measured values from ChEMBL document CHEMBL1641570, “New hydroxystilbenoid derivatives endowed with neuroprotective activity and devoid of interference with estrogen and aryl hydrocarbon receptor-mediated transcription” (Bioorg Med Chem, 2011).

species on record: Homo sapiens; test: Selectivity ratio, ratio of RBA for human recombinant ERbeta to RBA for human recombinant ERalpha

| Ratio | Compound |
| --- | --- |
| 0.55 | CCC(CC)c1cc(/C=C/C=C/c2cc(O)cc(O)c2)ccc1O |
| 0.89 | CCC(CC)c1cc(/C=C/C=C/c2cc(O)cc(O)c2)cc(C(CC)CC)c1O |
| 0.54 | CCC(CC)c1cc(/C=C/c2cc(O)cc(O)c2)cc(C(CC)CC)c1O |
| 0.81 | CC(C)(C)c1cc(/C=C/c2cc(O)cc(O)c2)cc(C(C)(C)C)c1O |
| 0.79 | CCC(CC)c1cc(/C=C/c2cc(O)cc(O)c2)ccc1O |

More lines, now with the values behind:

| Compound | Ratio |
| --- | --- |
| CC(C)(C)c1cc(/C=C/c2cc(C(C)(C)C)c(O)c(C(C)(C)C)c2)cc(C(C)(C)C)c1O | 0.6 |
| CC(C)(C)c1cc(/C=C/c2cc(O)cc(O)c2)ccc1O | 0.59 |
| Oc1ccc(/C=C/C=C/c2cc(O)cc(O)c2)cc1 | 3.35 |
| CC(C)(C)c1cc(/C=C/C=C/c2cc(O)cc(O)c2)ccc1O | 1.1 |
| CC(C)(C)c1cc(/C=C/c2ccc(O)cc2)ccc1O | 3.28 |
| CC(C)(C)c1cc(/C=C/C=C/c2cc(O)cc(O)c2)cc(C(C)(C)C)c1O | 1.16 |
